Amino acid sequences for entries named in this document (tags omitted). Residues count along the entry.
UniProt Q07954, 20-4544: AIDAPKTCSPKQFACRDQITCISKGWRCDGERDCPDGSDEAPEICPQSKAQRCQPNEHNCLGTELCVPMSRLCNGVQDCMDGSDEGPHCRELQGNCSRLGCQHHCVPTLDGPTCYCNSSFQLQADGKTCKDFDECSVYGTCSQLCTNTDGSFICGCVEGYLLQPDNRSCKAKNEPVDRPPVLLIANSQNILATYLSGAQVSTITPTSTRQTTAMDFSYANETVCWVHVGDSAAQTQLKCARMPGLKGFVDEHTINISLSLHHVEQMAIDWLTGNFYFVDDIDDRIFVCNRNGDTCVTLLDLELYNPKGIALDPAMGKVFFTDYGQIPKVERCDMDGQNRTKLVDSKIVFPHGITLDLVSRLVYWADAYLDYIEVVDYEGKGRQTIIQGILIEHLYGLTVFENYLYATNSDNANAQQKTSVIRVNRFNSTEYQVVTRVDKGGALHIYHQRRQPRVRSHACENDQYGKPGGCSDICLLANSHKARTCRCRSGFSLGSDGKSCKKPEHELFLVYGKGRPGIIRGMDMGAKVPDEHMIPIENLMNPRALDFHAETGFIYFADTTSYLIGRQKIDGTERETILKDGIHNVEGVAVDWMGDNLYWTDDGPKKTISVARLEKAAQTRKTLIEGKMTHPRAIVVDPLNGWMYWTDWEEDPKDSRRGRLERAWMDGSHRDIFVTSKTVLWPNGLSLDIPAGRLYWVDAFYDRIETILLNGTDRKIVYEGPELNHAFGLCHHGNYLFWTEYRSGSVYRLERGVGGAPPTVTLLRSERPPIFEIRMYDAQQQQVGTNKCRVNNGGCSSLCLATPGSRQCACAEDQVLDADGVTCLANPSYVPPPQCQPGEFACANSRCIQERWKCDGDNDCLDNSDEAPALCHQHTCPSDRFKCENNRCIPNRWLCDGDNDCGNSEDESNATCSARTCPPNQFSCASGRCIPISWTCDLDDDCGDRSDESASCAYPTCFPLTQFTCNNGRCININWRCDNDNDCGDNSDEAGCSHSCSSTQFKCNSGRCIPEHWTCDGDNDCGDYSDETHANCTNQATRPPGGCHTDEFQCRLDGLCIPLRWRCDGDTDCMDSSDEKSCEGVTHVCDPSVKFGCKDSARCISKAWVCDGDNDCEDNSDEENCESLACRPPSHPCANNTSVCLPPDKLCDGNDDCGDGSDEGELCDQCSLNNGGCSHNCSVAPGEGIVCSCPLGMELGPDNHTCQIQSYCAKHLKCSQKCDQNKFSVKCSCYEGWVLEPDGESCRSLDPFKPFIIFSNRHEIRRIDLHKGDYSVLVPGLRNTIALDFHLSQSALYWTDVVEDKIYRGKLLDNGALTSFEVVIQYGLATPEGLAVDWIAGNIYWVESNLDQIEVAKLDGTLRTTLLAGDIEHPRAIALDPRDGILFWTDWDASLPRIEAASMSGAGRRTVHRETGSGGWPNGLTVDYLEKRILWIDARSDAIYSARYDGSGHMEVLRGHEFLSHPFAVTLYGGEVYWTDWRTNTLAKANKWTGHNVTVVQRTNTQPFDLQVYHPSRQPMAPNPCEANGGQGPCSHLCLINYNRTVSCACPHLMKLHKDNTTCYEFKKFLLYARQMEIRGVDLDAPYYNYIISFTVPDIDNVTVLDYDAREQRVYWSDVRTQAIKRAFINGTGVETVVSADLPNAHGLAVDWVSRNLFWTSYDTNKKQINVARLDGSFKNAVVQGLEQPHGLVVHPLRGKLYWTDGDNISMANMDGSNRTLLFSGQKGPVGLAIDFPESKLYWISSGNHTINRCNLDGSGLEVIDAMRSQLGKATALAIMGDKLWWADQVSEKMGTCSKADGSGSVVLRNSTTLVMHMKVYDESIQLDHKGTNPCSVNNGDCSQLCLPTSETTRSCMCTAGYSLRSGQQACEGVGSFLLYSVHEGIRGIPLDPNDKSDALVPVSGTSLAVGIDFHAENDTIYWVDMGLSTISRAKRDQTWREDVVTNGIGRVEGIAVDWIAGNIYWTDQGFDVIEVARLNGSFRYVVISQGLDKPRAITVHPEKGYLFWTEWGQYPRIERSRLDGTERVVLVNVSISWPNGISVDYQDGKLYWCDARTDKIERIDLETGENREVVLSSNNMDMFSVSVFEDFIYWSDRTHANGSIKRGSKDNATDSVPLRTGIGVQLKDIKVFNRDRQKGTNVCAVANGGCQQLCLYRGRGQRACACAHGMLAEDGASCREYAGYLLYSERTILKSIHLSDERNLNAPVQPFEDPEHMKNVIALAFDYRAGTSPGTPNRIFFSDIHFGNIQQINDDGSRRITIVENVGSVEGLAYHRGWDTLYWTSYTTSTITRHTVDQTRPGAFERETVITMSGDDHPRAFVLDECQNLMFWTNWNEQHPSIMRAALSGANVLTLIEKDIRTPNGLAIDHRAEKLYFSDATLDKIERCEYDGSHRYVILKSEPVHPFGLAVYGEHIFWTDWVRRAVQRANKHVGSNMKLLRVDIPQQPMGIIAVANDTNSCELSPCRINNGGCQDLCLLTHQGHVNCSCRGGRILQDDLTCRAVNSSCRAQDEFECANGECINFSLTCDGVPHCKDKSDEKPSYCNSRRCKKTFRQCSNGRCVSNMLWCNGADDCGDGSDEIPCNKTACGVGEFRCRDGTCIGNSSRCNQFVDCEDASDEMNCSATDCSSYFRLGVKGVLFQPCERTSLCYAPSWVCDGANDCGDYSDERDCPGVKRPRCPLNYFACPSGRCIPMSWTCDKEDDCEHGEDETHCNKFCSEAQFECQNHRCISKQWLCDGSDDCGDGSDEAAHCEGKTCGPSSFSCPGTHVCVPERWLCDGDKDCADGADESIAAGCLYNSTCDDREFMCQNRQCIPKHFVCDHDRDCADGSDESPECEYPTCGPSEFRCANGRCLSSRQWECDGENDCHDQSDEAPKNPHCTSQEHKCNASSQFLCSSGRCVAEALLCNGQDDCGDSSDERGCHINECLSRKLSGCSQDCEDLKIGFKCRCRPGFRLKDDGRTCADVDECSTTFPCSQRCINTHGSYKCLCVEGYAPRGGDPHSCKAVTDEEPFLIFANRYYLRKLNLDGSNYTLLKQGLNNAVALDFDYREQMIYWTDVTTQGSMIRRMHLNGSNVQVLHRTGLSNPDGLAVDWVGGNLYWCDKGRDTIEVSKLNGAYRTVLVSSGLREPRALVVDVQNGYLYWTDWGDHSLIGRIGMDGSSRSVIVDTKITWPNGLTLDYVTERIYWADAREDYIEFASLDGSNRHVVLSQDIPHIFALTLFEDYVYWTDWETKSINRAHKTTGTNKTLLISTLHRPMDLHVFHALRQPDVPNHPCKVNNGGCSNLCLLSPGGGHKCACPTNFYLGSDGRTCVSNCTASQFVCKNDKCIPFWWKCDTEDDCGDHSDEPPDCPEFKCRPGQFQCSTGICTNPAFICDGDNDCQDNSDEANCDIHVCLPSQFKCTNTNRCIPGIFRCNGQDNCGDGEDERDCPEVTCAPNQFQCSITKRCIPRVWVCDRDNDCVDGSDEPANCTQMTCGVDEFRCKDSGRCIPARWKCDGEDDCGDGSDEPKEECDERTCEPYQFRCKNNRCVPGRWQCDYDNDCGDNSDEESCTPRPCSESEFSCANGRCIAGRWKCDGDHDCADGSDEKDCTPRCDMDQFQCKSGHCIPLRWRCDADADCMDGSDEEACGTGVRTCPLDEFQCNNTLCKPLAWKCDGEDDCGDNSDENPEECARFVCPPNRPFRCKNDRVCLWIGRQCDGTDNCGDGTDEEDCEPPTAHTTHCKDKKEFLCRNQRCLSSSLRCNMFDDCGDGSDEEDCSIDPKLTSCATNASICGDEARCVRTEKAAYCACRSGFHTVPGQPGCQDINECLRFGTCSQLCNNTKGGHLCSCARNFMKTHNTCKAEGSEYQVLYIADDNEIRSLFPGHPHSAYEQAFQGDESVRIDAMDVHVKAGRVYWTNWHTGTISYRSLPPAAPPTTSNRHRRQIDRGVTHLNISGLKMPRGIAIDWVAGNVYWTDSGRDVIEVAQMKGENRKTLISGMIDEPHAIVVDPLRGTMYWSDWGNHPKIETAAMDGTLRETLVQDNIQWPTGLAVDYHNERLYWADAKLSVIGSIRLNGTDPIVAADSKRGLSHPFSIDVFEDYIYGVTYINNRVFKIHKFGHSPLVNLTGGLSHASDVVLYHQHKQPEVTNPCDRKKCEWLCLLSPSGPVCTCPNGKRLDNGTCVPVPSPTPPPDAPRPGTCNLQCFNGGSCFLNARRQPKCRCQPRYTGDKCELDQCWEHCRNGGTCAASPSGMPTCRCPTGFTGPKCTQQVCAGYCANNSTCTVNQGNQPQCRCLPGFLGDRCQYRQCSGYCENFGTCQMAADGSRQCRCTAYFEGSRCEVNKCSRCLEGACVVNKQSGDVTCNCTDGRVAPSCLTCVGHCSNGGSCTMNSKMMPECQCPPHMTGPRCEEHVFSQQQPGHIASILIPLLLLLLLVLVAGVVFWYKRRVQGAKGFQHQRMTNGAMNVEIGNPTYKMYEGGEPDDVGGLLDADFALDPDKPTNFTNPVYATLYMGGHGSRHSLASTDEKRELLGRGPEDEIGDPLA

According to publication PMC8164048:

How the values were obtained:
[1] = target: Full-length human low-density lipoprotein receptor-related protein 1 (LRP1) (human) (UniProt Q07954); experiment: SPR; full-length LRP1 coupled to the chip (Biacore 3000); single-cycle kinetic titration of tau forms (3.8, 11.5, 34.4, 103.3, 310 nM, 3.5-min injections), with Ca2+; Req from a pseudo first-order fit plotted against concentration, KD by nonlinear regression
[2] = target: Recombinant human LRP1 cluster II Fc chimera (human); experiment: SPR; LRP1 clusters II, III or IV immobilized on SPR chips; single-cycle kinetic experiment with monomeric tau, equilibrium analysis
[3] = target: Recombinant human LRP1 cluster IV Fc chimera (human); experiment: as above

Row | Kd [1] [nM] | Kd [2] [nM] | Kd [3] [nM] | Substance
1 | 243 | – | – | hyperphosphorylated 2N4R tau produced in Sf9 insect cells (from UniProt P10636-8 1-441) (natural protein; hyperphosphorylated (intermediate tau phosphorylation state); sites not printed)
2 | 60 | 69 | 81 | tau, 2N4R variant (recombinant, unmodified, produced in E. coli) (from UniProt P10636-8 1-441) (natural protein)
